{
  "source": "ChEMBL document CHEMBL4311942",
  "about": "“Design of Trp-Rich Dodecapeptides with Broad-Spectrum Antimicrobial Potency and Membrane-Disruptive Mechanism” (J Med Chem, 2019)",
  "assay": "Resistance index, ratio of MIC for antibacterial activity against ciprofloxacin-resistant Escherichia coli to MIC for Escherichia coli ATCC 25922 incubated for 18 to 24 hrs by broth microdilution method",
  "type": "functional",
  "data": [
    {"compound": "CC(C)C[C@H](NC(=O)[C@H](CCCNC(=N)N)NC(=O)[C@H](Cc1c[nH]c2ccccc12)NC(=O)[C@H](CCCNC(=N)N)NC(=O)[C@@H](NC(=O)[C@H](CCCCN)NC(=O)[C@H](Cc1c[nH]c2ccccc12)NC(=O)[C@H](CCCNC(=N)N)NC(=O)[C@H](CC(C)C)NC(=O)[C@H](CCCNC(=N)N)NC(=O)[C@@H](N)Cc1c[nH]c2ccccc12)[C@@H](C)O)C(=O)N[C@@H](CCCCN)C(N)=O", "values": [
      {"measurement": "Ratio", "value": 1}
    ]}
  ]
}
